This is an account of results in patent US6150376A, “Bi- and tri-cyclic aza compounds and their uses” (Georgetown University, priority 1998, dated 2000).

The chains behind the UniProt entries cited, without tags or fusion partners. Residues count along the entry.
UniProt P31652, whole entry: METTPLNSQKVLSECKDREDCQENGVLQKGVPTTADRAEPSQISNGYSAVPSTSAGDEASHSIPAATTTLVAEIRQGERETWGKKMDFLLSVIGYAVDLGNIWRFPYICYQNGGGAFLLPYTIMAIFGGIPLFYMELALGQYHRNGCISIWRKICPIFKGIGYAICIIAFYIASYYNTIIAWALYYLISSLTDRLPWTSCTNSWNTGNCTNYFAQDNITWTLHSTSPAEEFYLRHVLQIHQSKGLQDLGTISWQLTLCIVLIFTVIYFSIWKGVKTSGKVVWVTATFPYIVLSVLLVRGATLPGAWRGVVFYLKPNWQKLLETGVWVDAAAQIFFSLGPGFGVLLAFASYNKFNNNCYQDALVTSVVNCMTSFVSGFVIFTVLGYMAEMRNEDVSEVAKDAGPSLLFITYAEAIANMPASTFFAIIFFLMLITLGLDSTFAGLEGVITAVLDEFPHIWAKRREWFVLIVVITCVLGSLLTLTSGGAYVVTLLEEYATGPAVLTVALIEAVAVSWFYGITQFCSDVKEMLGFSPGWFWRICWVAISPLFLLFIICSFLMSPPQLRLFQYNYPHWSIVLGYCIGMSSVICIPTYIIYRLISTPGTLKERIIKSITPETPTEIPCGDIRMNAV
UniProt Q63380, 1-617: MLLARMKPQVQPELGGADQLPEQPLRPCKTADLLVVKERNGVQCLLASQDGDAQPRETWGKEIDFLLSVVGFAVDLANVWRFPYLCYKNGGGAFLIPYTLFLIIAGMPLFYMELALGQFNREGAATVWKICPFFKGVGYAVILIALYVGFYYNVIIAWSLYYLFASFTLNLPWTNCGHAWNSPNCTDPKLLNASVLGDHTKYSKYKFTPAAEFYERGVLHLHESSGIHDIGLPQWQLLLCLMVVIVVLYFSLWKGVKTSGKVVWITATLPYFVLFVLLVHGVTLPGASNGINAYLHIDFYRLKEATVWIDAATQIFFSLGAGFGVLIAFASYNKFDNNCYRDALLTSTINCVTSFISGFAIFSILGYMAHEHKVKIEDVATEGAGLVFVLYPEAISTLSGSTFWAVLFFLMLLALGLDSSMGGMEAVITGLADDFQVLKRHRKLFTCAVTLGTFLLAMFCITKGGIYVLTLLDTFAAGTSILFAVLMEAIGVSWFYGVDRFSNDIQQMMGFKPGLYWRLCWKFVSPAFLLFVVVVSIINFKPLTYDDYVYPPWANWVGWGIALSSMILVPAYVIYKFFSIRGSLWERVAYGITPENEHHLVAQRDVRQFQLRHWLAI

One experiment deals with T1, serotonin transporter (Rattus norvegicus, UniProt P31652).
T1 construct: from tissue
The experiment in a line: [3H]5-HT uptake (re-uptake inhibition at the serotonin transporter). It is filed as biochemical. As to conditions: Ki ± SE; Krebs-Ringer-HEPES buffer. How it is done: (§1) Various isomeric forms of front-bridged Compounds 4, 5, 29, 30, 31, 40 and 50a and back-bridged Compounds 41, 42a, 42b, 49a and 50a were assayed for binding at the dopamine transporter and for inhibition of monamine re-uptake at the dopamine, serotonin and norepinephrine transporters. Mazindol binding were measured as previously described in Johnson et. al., 1992, Eur. J. Pharmacol., Mol. Pharmacol. Sect., 227:411-415. Reuptake inhibition was measured essentially as described in Yi et. al., 1991, Neuropharmacol. 29:475-486, except that an identical Krebs-Ringer-HEPES buffer was used for binding and all uptake assays (Slusher et al., 1997, Drug Alcohol Depend. 48:43-50).

In experiment [1] the target is T2, norepinephrine transporter (Rattus norvegicus, UniProt Q63380).
T2 construct: from tissue
The experiment in a line: [3H]NE uptake (re-uptake inhibition at the norepinephrine transporter). In kind it is biochemical. As to conditions: Ki ± SE; Krebs-Ringer-HEPES buffer. The method, then: as §1

For orientation: Ki means the equilibrium dissociation constant of an inhibitor or competing ligand from its target. A lower Ki goes with higher affinity.

Turning to cocaine [reference compound], the Ki was found to be 154.7 ± 0.4 nM at serotonin transporter and 83.3 ± 1.5 nM in experiment [1].
